Experimental data: ChEMBL document CHEMBL2176916, “Mimicking the intramolecular hydrogen bond: synthesis, biological evaluation, and molecular modeling of benzoxazines and quinazolines as potential antimalarial agents” (J Med Chem, 2012)

Test system: Potassium voltage-gated channel subfamily H member 2 (Rattus norvegicus)
Assay: Inhibition of rat ERG at 100 nM after 2 to 3 days by patch clamp assay
Details: 0.1 µM; call rule not given here

Clc1ccc2c(Nc3ccc4c(c3)NCN(Cc3ccccc3)C4)ccnc2c1
inhibition (INH): Not Active
